Assay results reported in paper PMC3663048 (Journal of medicinal chemistry, 2011).

Sequences of proteins named here, by UniProt entry; tags and fusion partners are left off. A change or cut given only in a name is not applied to a line headed by its entry.
UniProt P51955: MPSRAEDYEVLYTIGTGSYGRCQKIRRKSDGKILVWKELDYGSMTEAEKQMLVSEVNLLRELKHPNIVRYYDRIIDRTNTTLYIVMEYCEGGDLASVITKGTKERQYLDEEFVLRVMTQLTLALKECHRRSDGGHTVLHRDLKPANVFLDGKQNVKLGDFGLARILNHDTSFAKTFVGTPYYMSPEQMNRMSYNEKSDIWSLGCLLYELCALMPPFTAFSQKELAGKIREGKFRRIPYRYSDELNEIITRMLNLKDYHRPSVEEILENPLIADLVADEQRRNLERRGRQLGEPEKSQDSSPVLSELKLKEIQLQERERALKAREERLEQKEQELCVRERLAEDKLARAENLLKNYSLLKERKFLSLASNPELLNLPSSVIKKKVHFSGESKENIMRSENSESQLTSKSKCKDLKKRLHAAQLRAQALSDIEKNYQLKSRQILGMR

Target: T1, C22V Nek2 kinase domain (aa 1-271) (Homo sapiens, UniProt P51955, C22V)
T1 sequence (P51955 1-271 C22V): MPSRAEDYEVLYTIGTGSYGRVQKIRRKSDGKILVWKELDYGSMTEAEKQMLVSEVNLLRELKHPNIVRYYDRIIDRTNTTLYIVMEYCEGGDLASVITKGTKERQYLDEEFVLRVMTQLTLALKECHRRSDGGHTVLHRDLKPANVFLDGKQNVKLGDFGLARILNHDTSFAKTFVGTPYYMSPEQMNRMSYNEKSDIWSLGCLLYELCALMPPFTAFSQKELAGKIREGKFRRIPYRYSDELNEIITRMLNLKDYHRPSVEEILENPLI
Conditions: ten-fold molar excess of compound, physiological pH

Alkylation of C22V Nek2 kinase domain (ESI-MS) | SMILES
No labeling | O=C1Nc2ccc(C(=O)CCl)cc2/C1=C/c1ccc[nH]1 [compound 2, (Z)-3-((1H-Pyrrol-2-yl)methylene)-5-(2-chloroacetyl)indolin-2-one]
No labeling | C#CC(=O)Nc1ccc2c(c1)/C(=C/c1ccc[nH]1)C(=O)N2 [compound 8, (Z)-N-(3-((1H-Pyrrol-2-yl)methylene)-2-oxoindolin-5-yl)propiolamide]
